Measured values published in patent US11286278B2, “DPEP-1 binding agents and methods of use” (Arch Biopartners, Inc., priority 2018, dated 2022).

Experiment: Circular dichroism spectroscopy of LSALT peptide and analogs
Type: physicochemical
Parameters: Inducible Helical Structure (50% TFE-benign): unit not given here
Method: The physical and chemical properties of protein therapeutics are critical factors that influence the ease of manufacturing, development and clinical use. The LSALT peptide was evaluated in terms of its solubility, aggregation state and stability using a variety of biophysical methods.
In circular dichroism spectroscopy the ellipticity value at 222 nm is a measure of a-helical content. 50% trifluoroethanol is a hydrophobic solvent and induces α-helical structure if the structure can be induced. All of the peptides tested can be induced to adopt α-helical structure. The peptides are random coils in benign conditions (non-denaturing). The buffer conditions were aqueous phosphate, pH 7.0.

## Bio-LSALTPSPSWLKYKAL [Biotin-Native]
50% trifluoroethanol
  inducible α-helical structure (in words): definite advantage for inducible α-helical structure
222 nm
  Inducible Helical Structure (50% TFE-benign): 43,134
222 nm, 50% TFE
  [θ] (222 nm) 50% TFE: −90148
222 nm, 50% TFE is considered 100% folded
  % Inducible Helical Structure (Inducible/50% TFE): 47.8%
222 nm, benign buffer (100 mM KCl, 50 mM Na2HPO4/NaH2PO4, pH 7.0)
  [θ] (222 nm) Benign (No TFE): −47013
